Test results from ChEMBL document CHEMBL2218924, “A broad activity screen in support of a chemogenomic map for kinase signalling research and drug discovery” (Biochem J, 2013).
For some assays here: The strong results were mostly taken out for another list; the other results follow. Unless noted, the rule behind the calls is not given here. Only a part is listed here, and it is no random draw.

Amino acid sequences for entries named in this document (tags omitted). A change or cut given only in a name is not applied to a line headed by its entry.
UniProt P53667: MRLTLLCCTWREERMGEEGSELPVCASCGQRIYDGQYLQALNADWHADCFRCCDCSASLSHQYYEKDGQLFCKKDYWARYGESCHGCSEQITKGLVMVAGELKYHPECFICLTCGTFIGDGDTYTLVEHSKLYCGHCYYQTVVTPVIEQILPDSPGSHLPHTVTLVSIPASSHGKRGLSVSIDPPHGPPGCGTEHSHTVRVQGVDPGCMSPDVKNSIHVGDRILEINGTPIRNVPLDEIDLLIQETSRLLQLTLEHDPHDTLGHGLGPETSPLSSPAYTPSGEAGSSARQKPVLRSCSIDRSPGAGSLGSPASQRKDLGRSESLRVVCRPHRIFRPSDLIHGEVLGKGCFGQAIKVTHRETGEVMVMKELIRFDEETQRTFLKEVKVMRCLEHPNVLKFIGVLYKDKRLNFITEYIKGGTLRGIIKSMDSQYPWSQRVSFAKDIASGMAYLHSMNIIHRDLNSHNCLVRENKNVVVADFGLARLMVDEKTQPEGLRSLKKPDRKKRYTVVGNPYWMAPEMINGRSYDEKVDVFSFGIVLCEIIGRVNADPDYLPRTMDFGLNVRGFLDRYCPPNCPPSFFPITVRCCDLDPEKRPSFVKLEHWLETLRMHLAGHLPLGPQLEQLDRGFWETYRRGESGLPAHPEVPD
UniProt Q8TDX7: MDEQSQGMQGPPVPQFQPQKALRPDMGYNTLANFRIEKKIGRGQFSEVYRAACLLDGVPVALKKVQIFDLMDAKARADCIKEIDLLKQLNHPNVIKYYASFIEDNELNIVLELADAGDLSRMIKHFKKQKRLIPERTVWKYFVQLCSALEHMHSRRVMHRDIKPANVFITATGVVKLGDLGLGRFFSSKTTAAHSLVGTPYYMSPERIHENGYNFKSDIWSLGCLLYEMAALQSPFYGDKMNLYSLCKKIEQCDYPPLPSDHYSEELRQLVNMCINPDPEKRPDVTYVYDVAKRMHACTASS

Legend:
[1] = biological target: Epidermal growth factor receptor (Homo sapiens) (UniProt P00533); conditions: at 10 µM
[2] = biological target: Epidermal growth factor receptor (Homo sapiens) (UniProt P00533); conditions: at 1 µM
[3] = biological target: T1, Eukaryotic elongation factor 2 kinase (Homo sapiens) (UniProt O00418); conditions: at 1 µM
T1 sequence (whole entry): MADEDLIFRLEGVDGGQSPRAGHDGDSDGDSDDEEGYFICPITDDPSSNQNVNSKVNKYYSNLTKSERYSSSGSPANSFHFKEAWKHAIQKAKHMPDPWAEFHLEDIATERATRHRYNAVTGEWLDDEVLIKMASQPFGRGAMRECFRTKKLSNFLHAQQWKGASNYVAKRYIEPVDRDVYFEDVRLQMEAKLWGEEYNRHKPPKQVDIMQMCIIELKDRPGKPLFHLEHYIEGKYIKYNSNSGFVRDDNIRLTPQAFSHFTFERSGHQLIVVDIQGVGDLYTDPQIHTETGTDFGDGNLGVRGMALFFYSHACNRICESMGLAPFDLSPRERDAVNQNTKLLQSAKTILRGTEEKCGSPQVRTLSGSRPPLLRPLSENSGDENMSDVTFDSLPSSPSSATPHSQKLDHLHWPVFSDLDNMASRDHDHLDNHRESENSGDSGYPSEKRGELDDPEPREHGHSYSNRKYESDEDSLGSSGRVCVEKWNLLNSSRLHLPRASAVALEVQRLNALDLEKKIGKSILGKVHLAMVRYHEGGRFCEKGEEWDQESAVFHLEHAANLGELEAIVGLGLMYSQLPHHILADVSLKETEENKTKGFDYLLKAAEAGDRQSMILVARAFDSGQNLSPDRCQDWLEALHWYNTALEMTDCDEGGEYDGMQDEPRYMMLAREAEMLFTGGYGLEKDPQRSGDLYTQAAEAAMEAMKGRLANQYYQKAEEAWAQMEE

[4] = biological target: T1, Eukaryotic elongation factor 2 kinase (Homo sapiens); conditions: at 10 µM
[5] = biological target: LIM domain kinase 1 (Homo sapiens) (UniProt P53667); conditions: at 1 µM
[6] = biological target: Serine/threonine-protein kinase Nek7 (Homo sapiens) (UniProt Q8TDX7); conditions: at 10 µM

Compound: Nc1ncnc2c1cnn2-c1ccccc1
- residual activity [1]: 71%

Compound: CC(=O)O/N=C1\C(=C2\C(=O)Nc3cc(Br)ccc32)Nc2ccccc21
- residual activity [2]: 102%
- residual activity [1]: 94%
- residual activity [3]: inactive: 100%
- residual activity [4]: 81%

Compound: Oc1n[nH]c2nnc(-c3c(-c4ccccc4)nn4ccccc34)cc12
- residual activity [2]: 100%
- residual activity [1]: 61%
- residual activity [3]: inactive: 110%
- residual activity [4]: 90%

Compound: CC(C)c1nn(-c2c(Cl)cccc2Cl)c2nc(Cc3ccc(OCCO)cc3)[nH]c(=O)c12
- residual activity [1]: 103%
- residual activity [3]: inactive: 99%
- residual activity [4]: 107%

Compound: CSc1nc(-c2ccc(F)cc2)c(-c2ccnc(NC(C)c3ccccc3)c2)[nH]1 (configuration not stated)
- residual activity [1]: 83%

Compound: Nc1n[nH]c2nnc(-c3c(-c4ccccc4)nn4ccccc34)cc12
- residual activity [2]: 87%
- residual activity [3]: inactive: 112%
- residual activity [4]: 89%

Compound: CN(C)c1ccc(/C=C2\C(=O)Nc3ccccc32)cc1
- residual activity [2]: 112%
- residual activity [3]: inactive: 90%
- residual activity [4]: 96%

Compound: COc1cccc(-c2cc(=O)c3ccccc3o2)c1N
- residual activity [2]: 107%
- residual activity [1]: 114%
- residual activity [3]: inactive: 101%
- residual activity [4]: 98%

Compound: COc1cc2ncnc(Nc3ccc(NC(=O)c4ccccc4)cc3)c2cc1OC
- residual activity [1]: 27%

Compound: CC(C)(C)c1nc2c3ccc(F)cc3c3c(=O)[nH]ccc3c2[nH]1
- residual activity [3]: inactive: 81%

Compound: COc1cc2ncnc(Nc3ccc(O)c(Br)c3)c2cc1OC
- residual activity [2]: -4%
- residual activity [1]: -3%
- residual activity [3]: inactive: 96%
- residual activity [4]: 110%

Compound: COc1ccc(Cl)cc1NC(=O)Nc1cc(C)nc2ccccc12
- residual activity [1]: 91%

Compound: COc1cc2ncc(-c3ccccc3)nc2cc1OC
- residual activity [5]: 112%
- residual activity [3]: inactive: 82%

Compound: Nc1ncnc2c1c(-c1ccc(Oc3ccccc3)cc1)cn2C1CCCC1
- residual activity [3]: inactive: 87%

Compound: COc1ccc(-c2cnc3c(-c4ccsc4)cnn3c2)cc1
- residual activity [3]: inactive: 87%

Compound: O=C1Nc2ccc(Cl)cc2/C1=C/c1cc(Cl)c(O)c(Cl)c1
- residual activity [3]: inactive: 94%
- residual activity [4]: 97%

Compound: Cc1cccc(-c2[nH]c(C(C)(C)C)nc2-c2ccc3c(c2)OCO3)n1
- residual activity [3]: inactive: 99%

Compound: CCCC(=O)Oc1ccc2[nH]c(C(=O)c3cc4ccccc4[nH]3)cc2c1
- residual activity [3]: inactive: 94%

Compound: CCOc1cc2ncnc(Nc3cccc(Br)c3)c2cc1OCC
- residual activity [3]: inactive: 91%
- residual activity [4]: 107%

Compound: O=C1NC(=O)c2cc(Nc3ccc(F)cc3)c(Nc3ccc(F)cc3)cc21
- residual activity [3]: inactive: 84%
- residual activity [4]: 147%

Compound: CN(C)CCCn1cc(C2=C(c3c[nH]c4ccccc34)C(=O)NC2=O)c2ccccc21
- residual activity [3]: inactive: 113%
- residual activity [4]: 115%

Compound: CO[C@@H]1[C@H](N(C)C(=O)c2ccccc2)C[C@H]2O[C@]1(C)n1c3ccccc3c3c4c(c5c6ccccc6n2c5c31)C(=O)NC4
- residual activity [3]: inactive: 83%
- residual activity [4]: 98%

Compound: N#C/C(=C\c1ccc(O)c(O)c1)C(=O)NCc1ccccc1
- residual activity [3]: inactive: 83%
- residual activity [4]: 122%

Compound: O=C(c1ccccc1)c1ccc(N2CCOCC2)cc1O
- residual activity [3]: inactive: 91%

Compound: O=C(Nc1cccc(Nc2cc(Nc3cccc(C(F)(F)F)c3)ncn2)c1)C1CC1
- residual activity [3]: inactive: 93%
- residual activity [4]: 84%

Compound: Cn1cnc2cc3c(Nc4cccc(Br)c4)ncnc3cc21
- residual activity [3]: inactive: 91%
- residual activity [4]: 113%

Compound: COc1cc2ncnc(N3CCN(C(=O)Nc4ccc(Oc5ccccc5)cc4)CC3)c2cc1OC
- residual activity [3]: inactive: 95%

Compound: Cn1sc(=O)n(Cc2ccccc2)c1=O
- residual activity [3]: inactive: 96%
- residual activity [4]: 83%

Compound: CC(=O)c1ccc(N2CCOCC2)cc1O
- residual activity [3]: inactive: 86%
- residual activity [4]: 105%

Compound: c1ccc2c(-c3ccncc3)c[nH]c2c1
- residual activity [3]: inactive: 86%

Compound: CC#CC(=O)Nc1cc2c(Nc3ccc(F)c(Cl)c3)ncnc2cn1
- residual activity [3]: inactive: 101%
- residual activity [4]: 93%

Compound: O=c1cc(N2CCNCC2)oc2c(-c3ccccc3)cccc12
- residual activity [3]: inactive: 95%
- residual activity [4]: 97%

Compound: NC(=O)Nc1sc(-c2ccc(F)cc2)cc1C(N)=O
- residual activity [3]: inactive: 77%
- residual activity [4]: 38%

Compound: CC(C)(C)n1nc(Cc2cccc3ccccc23)c2c(N)ncnc21
- residual activity [6]: inactive: 111%

Compound: O=c1cc(N2CCOCC2)oc2c1ccc1ccccc12
- residual activity [3]: inactive: 99%
- residual activity [4]: 94%

Compound: O=C1C(Cl)=C(N2C(=O)CCC2=O)C(=O)c2ccccc21
- residual activity [3]: inactive: 100%
- residual activity [4]: 91%

Compound: Cc1cc2ncc(-c3ccccc3)nc2cc1C
- residual activity [3]: inactive: 86%
- residual activity [4]: 106%

Compound: CO[C@H]1[C@@H](OC)C[C@H](C)[C@@H](OC)C2=CC(=O)C=C(NC(=O)/C(C)=C/C=C/[C@H](OC)[C@@H](OC(N)=O)/C(C)=C/[C@@H]1C)C2=O
- residual activity [3]: inactive: 120%
- residual activity [4]: 112%

Compound: N#C/C(=C(/N)SC1C=CC=CC1)c1cccc(C(O)c2ccncc2)c1 (configuration not stated)
- residual activity [4]: 88%

Compound: CO[C@H]1C[C@@H]2CC[C@@H](C)[C@@](O)(O2)C(=O)C(=O)N2CCCC[C@H]2C(=O)O[C@H]([C@H](C)C[C@@H]2CC[C@@H](O)[C@H](OC)C2)CC(=O)[C@H](C)/C=C(\C)[C@@H](O)[C@@H](OC)C(=O)[C@H](C)C[C@H](C)/C=C/C=C/C=C/1C
- residual activity [3]: inactive: 111%
- residual activity [4]: 148%
